Paper PMC5355877, “The development of novel LTA4H modulators to selectively target LTB4 generation” (Scientific Reports, 2017)

Biological target: T1, recombinant human LTA4H (aminopeptidase, PGP substrate) (Homo sapiens, UniProt P09960)
T1 construct: purchased Cayman Chemicals
T1 sequence (P09960 1-611): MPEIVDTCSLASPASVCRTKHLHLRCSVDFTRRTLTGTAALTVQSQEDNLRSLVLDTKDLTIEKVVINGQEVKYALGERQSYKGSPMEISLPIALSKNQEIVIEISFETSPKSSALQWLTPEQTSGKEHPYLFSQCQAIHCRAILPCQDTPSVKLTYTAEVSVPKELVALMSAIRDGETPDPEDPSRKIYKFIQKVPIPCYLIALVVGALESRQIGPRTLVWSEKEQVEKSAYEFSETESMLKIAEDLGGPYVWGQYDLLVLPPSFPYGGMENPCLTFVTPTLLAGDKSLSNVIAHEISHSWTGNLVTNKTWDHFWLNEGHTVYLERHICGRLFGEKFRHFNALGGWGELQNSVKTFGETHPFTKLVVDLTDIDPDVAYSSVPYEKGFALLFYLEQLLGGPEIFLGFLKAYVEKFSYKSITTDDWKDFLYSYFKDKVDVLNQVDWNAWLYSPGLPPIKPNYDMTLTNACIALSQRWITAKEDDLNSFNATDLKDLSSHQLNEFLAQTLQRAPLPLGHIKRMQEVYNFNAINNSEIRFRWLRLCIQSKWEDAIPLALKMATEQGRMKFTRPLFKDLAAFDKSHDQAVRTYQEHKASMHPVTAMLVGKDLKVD
Experiment: LTA4H aminopeptidase activity: PGP degradation by recombinant human LTA4H
Format: biochemical
Conditions: Table 1, read-out: Aminopeptidase IC50 ± SEM
Procedure: For peptide quantification in serum, PGP and AcPGP were measured using a MDS Sciex API-4000 spectrometer (Applied Biosystems, Foster City, CA) equipped with a Shimadzu HPLC (Columbia, MD). For peptide quantification from degradation experiments, PGP and AcPGP were measured using a Thermo Accela Pump and Autosampler coupled to a Thermo TSQ Quantum Access. […] Peak area was measured, and PGP/AcPGP peptide concentrations were calculated using a relative standard curve method as previously described.
Mouse serum (diluted 1/10 in PBS) or recombinant human LTA4H (0.1 μg/ml; Cayman Chemicals, Michigan, USA) were incubated with 0.4 mM PGP at 37 °C in 5% CO2 for varying periods of time. Concentrations of PGP remaining were subsequently quantified by ESI-LC/MS/MS (as discussed above) by comparison with PGP standards. The percentage of peptide degraded was determined relative to control samples of 0.4 mM PGP alone. PGP degradation was also assessed by measurement of free proline released and its ensuing reaction with Ninhydrin (as discussed below). […]
To assess free proline liberated, aliquots from PGP degradation experiments were diluted 1 in 10 in PBS (to a final volume of 250 μl). […] The reaction mixture was heated at 100 °C for 60 minutes, allowed to cool to room temperature and the proline containing fraction extracted with 500 μl of toluene and optical density measured at 520 nm.

Row | SMILES | IC50 [µM]
1 | O=C(O)CCCN1CCC[C@H]1COc1ccc(Oc2ccc(Cl)cc2)cc1 [DG-051, 4-[(2S)-2-{[4-(4-chlorophenoxy)phenoxy]methyl}-1-pyrrolidinyl]butanoic acid, reference compound] | 0.15 ± 0.0194
2 | CN(CCCOc1ccc(Cc2ccccc2)cc1)CCC(=O)O.Cl [SC57461A, 3-[methyl[3-[4-(phenylmethyl)phenoxy]propyl]amino]propanoic acid HCl] | 0.074 ± 0.0073
